# Measurements reported in EP4610260B1, “ARYL HETEROCYCLIC KV1.3 INHIBITOR, PREPARATION METHOD THEREFOR, AND USE THEREOF” (Shanghai Shenshi Wise Technology Co., Ltd., priority 2022, dated 2024).
# Test system: Kv1.3 potassium channel
# Test: Whole-cell patch-clamp assay for inhibitory activity against Kv1.3 (peak current)
# Type: cell-based
# Details: HEK293 cells stably expressing Kv1.3, room temperature
# Procedure: 1. Assay for inhibitory activity of compounds against Kv1.X
# HEK293 cells stably expressing Kv1.X (Kv1.1, Kv1.2, Kv1.3, Kv1.4, Kv1.5) potassium channels were cultured in DMEM medium containing 10% fetal bovine serum and 800 µg/mL G418 (geneticin) at a culture temperature of 37 °C and a carbon dioxide concentration of 5%.
# 1.2. Fluids used for recording
# The extracellular fluid contained 40 mM NaCl, 3.5 mM KCl, 1 mM MgCl2•6H2O, 2 mM CaCl2•2H2O, 10 mM D-glucose, 10 mM HEPES, 1.25 mM NaH2PO4•2H2O, and the pH was adjusted to 7.4 with NaOH. The intracellular fluid contained 20 mM KCl, 115 mM K-Aspartic, 1 mM MgCl2•6H2O, 5 mM EGTA, 10 mM HEPES, 2 mM Na2-ATP, and the pH was adjusted to 7.2 with KOH.
# The voltage stimulation protocol for recording whole-cell Kv1.X potassium currents via patch-clamp was as follows: After formation of a whole-cell seal, the cell membrane voltage was clamped at -80 mV, and then stepped to +40 mV for 500 ms. Data were acquired repeatedly every 30 s and the effect of the drug on Kv1.X currents was observed. […] Then, a slow capacitance compensation was given, and the membrane capacitance and series resistance were recorded. […]
# Once the whole-cell recorded Kv1.X current stabilized, drug administration was started. […] For each cell, the current detected in the compound-free extracellular liquid was used as its own control group. […]
substance,measurement,value
"3,4-Dichloro-2-(3-(piperidin-4-ylmethyl)-6,7-dihydro-5H-pyrrolo[2,1-c][1,2,4]triazol-6-yl)phenol [Example 17]",IC50,6.68 nM
